{"source": "patent US20160022760A1", "about": "“METHODS OF TREATING CELIAC DISEASE WITH LARAZOTIDE” (priority 2014, published 2016)", "test_system": "subjects with celiac disease", "assay": "Phase IIb study: clinical laboratory values (hematology, chemistry)", "key": {"[1]": {"details": "1 mg TID, end of treatment, Safety Population"}, "[2]": {"details": "2 mg TID, N = 87, treatment period, Safety Population"}, "[3]": {"details": "2 mg TID, end of treatment, Safety Population"}, "[4]": {"details": "all treatment groups, end of treatment"}}, "note": "Where no end group is shown, it is not given here."}
{"sequence": "GGVLVQPG (SEQ ID NO:1) [Larazotide acetate]", "values": [{"measurement": "Calcium, Mean Change From Baseline to End of Treatment", "setting": "1 mg TID, Safety Population", "result": 0.0, "unit": "mg/dL"}, {"measurement": "Chloride, Mean Change From Baseline to End of Treatment", "setting": "1 mg TID, Safety Population", "result": -0.3, "unit": "mmol/L"}, {"measurement": "Creatinine, Mean Change From Baseline to End of Treatment", "setting": "1 mg TID, Safety Population", "result": 0.0, "unit": "mg/dL"}, {"measurement": "Eosinophils, Mean Change From Baseline to End of Treatment", "setting": "1 mg TID, Safety Population", "result": "−0.1", "unit": "%"}, {"measurement": "Glucose (random), Mean Change From Baseline to End of Treatment", "setting": "1 mg TID, Safety Population", "result": 2.2, "unit": "mg/dL"}, {"measurement": "Hematocrit, Mean Change From Baseline to End of Treatment", "setting": "1 mg TID, Safety Population", "result": 0.5, "unit": "%"}, {"measurement": "Hemoglobin, Mean Change From Baseline to End of Treatment", "setting": "1 mg TID, Safety Population", "result": 0.1, "unit": "g/dL"}, {"measurement": "Lymphocytes, Mean Change From Baseline to End of Treatment", "setting": "1 mg TID, Safety Population", "result": 0.3, "unit": "%"}, {"measurement": "Monocytes, Mean Change From Baseline to End of Treatment", "setting": "1 mg TID, Safety Population", "result": "−0.1", "unit": "%"}, {"measurement": "Neutrophils, Mean Change From Baseline to End of Treatment", "setting": "1 mg TID, Safety Population", "result": "−0.2", "unit": "%"}, {"measurement": "Platelet count, Mean Change From Baseline to End of Treatment", "setting": "1 mg TID, Safety Population", "result": "−2", "unit": "K/μL"}, {"measurement": "Potassium, Mean Change From Baseline to End of Treatment", "setting": "1 mg TID, Safety Population", "result": -0.1, "unit": "mmol/L"}, {"measurement": "Sodium, Mean Change From Baseline to End of Treatment", "setting": "1 mg TID, Safety Population", "result": 0.2, "unit": "mmol/L"}, {"measurement": "Total bilirubin, Mean Change From Baseline to End of Treatment", "setting": "1 mg TID, Safety Population", "result": -0.0, "unit": "mg/dL"}, {"measurement": "White blood cells, Mean Change From Baseline to End of Treatment", "setting": "1 mg TID, Safety Population", "result": "−0.2", "unit": "K/μL"}, {"measurement": "ALT, Mean Value", "setting": "[1]", "result": 21.9, "unit": "IU/L"}, {"measurement": "AST, Mean Value", "setting": "[1]", "result": 20.9, "unit": "IU/L"}, {"measurement": "Albumin, Mean Value", "setting": "[1]", "result": 4.2, "unit": "g/dL"}, {"measurement": "Alkaline phosphatase, Mean Value", "setting": "[1]", "result": 63.3, "unit": "IU/L"}, {"measurement": "BUN, Mean Value", "setting": "[1]", "result": 12.9, "unit": "mg/dL"}, {"measurement": "Basophils, Mean Value", "setting": "[1]", "result": 0.3, "unit": "%"}, {"measurement": "Calcium, Mean Value", "setting": "[1]", "result": 9.4, "unit": "mg/dL"}, {"measurement": "Chloride, Mean Value", "setting": "[1]", "result": 103.8, "unit": "mmol/L"}, {"measurement": "Creatinine, Mean Value", "setting": "[1]", "result": 0.8, "unit": "mg/dL"}, {"measurement": "Eosinophils, Mean Value", "setting": "[1]", "result": 2.4, "unit": "%"}, {"measurement": "Glucose (random), Mean Value", "setting": "[1]", "result": 93.1, "unit": "mg/dL"}, {"measurement": "Hematocrit, Mean Value", "setting": "[1]", "result": 40.3, "unit": "%"}, {"measurement": "Hemoglobin, Mean Value", "setting": "[1]", "result": 13.5, "unit": "g/dL"}, {"measurement": "Lymphocytes, Mean Value", "setting": "[1]", "result": 29.2, "unit": "%"}, {"measurement": "Monocytes, Mean Value", "setting": "[1]", "result": 7.4, "unit": "%"}, {"measurement": "Neutrophils, Mean Value", "setting": "[1]", "result": 60.8, "unit": "%"}, {"measurement": "Platelet count, Mean Value", "setting": "[1]", "result": 250, "unit": "K/μL"}, {"measurement": "Potassium, Mean Value", "setting": "[1]", "result": 4.1, "unit": "mmol/L"}, {"measurement": "Sodium, Mean Value", "setting": "[1]", "result": 138.1, "unit": "mmol/L"}, {"measurement": "Total bilirubin, Mean Value", "setting": "[1]", "result": 0.5, "unit": "mg/dL"}, {"measurement": "White blood cells, Mean Value", "setting": "[1]", "result": 6.2, "unit": "K/μL"}, {"measurement": "Proportion of subjects who developed potentially clinically significant abnormal laboratory values during the treatment period", "setting": "2 mg TID", "result": 19.5, "unit": "%"}, {"measurement": "PCS abnormal ALT (≧3 × ULN), subjects n", "setting": "[2]", "result": 0}, {"measurement": "PCS abnormal AST (≧3 × ULN), subjects n", "setting": "[2]", "result": 0}, {"measurement": "PCS abnormal Alkaline phosphatase (≧3 × ULN), subjects n", "setting": "[2]", "result": 0}, {"measurement": "PCS abnormal Ferritin serum (≦0.75 × LLN), subjects %", "setting": "[2]", "result": "(10.3) %"}, {"measurement": "PCS abnormal Ferritin serum (≦0.75 × LLN), subjects n", "setting": "[2]", "result": 9}, {"measurement": "PCS abnormal Glucose random (≦0.75 × LLN), subjects %", "setting": "[2]", "result": "(2.3) %"}, {"measurement": "PCS abnormal Glucose random (≦0.75 × LLN), subjects n", "setting": "[2]", "result": 2}, {"measurement": "PCS abnormal Hematocrit (≦0.75 × LLN), subjects n", "setting": "[2]", "result": 0}, {"measurement": "PCS abnormal Hemoglobin (≦0.75 × LLN), subjects n", "setting": "[2]", "result": 0}, {"measurement": "PCS abnormal Lymphocytes (≦0.75 × LLN or ≧1.5 × ULN), subjects %", "setting": "[2]", "result": "(5.7) %"}, {"measurement": "PCS abnormal Lymphocytes (≦0.75 × LLN or ≧1.5 × ULN), subjects n", "setting": "[2]", "result": 5}, {"measurement": "PCS abnormal Neutrophils (≦0.75 × LLN or ≧1.5 × ULN), subjects %", "setting": "[2]", "result": "(2.3) %"}, {"measurement": "PCS abnormal Neutrophils (≦0.75 × LLN or ≧1.5 × ULN), subjects n", "setting": "[2]", "result": 2}, {"measurement": "PCS abnormal White blood cells (≦0.75 × LLN or ≧1.5 × ULN), subjects n", "setting": "[2]", "result": 0}, {"measurement": "Subjects with at least 1 PCS abnormal test, %", "setting": "[2]", "result": "(19.5) %"}, {"measurement": "ALT, Mean Change From Baseline to End of Treatment", "setting": "2 mg TID, Safety Population", "result": "−0.6", "unit": "IU/L"}, {"measurement": "AST, Mean Change From Baseline to End of Treatment", "setting": "2 mg TID, Safety Population", "result": "−0.9", "unit": "IU/L"}, {"measurement": "Albumin, Mean Change From Baseline to End of Treatment", "setting": "2 mg TID, Safety Population", "result": 0.0, "unit": "g/dL"}, {"measurement": "Alkaline phosphatase, Mean Change From Baseline to End of Treatment", "setting": "2 mg TID, Safety Population", "result": "−0.4", "unit": "IU/L"}, {"measurement": "BUN, Mean Change From Baseline to End of Treatment", "setting": "2 mg TID, Safety Population", "result": 1.0, "unit": "mg/dL"}, {"measurement": "Basophils, Mean Change From Baseline to End of Treatment", "setting": "2 mg TID, Safety Population", "result": 0, "unit": "%"}, {"measurement": "Calcium, Mean Change From Baseline to End of Treatment", "setting": "2 mg TID, Safety Population", "result": -0.0, "unit": "mg/dL"}, {"measurement": "Chloride, Mean Change From Baseline to End of Treatment", "setting": "2 mg TID, Safety Population", "result": -0.7, "unit": "mmol/L"}, {"measurement": "Creatinine, Mean Change From Baseline to End of Treatment", "setting": "2 mg TID, Safety Population", "result": 0.0, "unit": "mg/dL"}, {"measurement": "Eosinophils, Mean Change From Baseline to End of Treatment", "setting": "2 mg TID, Safety Population", "result": 0, "unit": "%"}, {"measurement": "Glucose (random), Mean Change From Baseline to End of Treatment", "setting": "2 mg TID, Safety Population", "result": 0.2, "unit": "mg/dL"}, {"measurement": "Hematocrit, Mean Change From Baseline to End of Treatment", "setting": "2 mg TID, Safety Population", "result": 0.4, "unit": "%"}, {"measurement": "Hemoglobin, Mean Change From Baseline to End of Treatment", "setting": "2 mg TID, Safety Population", "result": 0.1, "unit": "g/dL"}, {"measurement": "Lymphocytes, Mean Change From Baseline to End of Treatment", "setting": "2 mg TID, Safety Population", "result": 0.9, "unit": "%"}, {"measurement": "Monocytes, Mean Change From Baseline to End of Treatment", "setting": "2 mg TID, Safety Population", "result": "−0.4", "unit": "%"}, {"measurement": "Neutrophils, Mean Change From Baseline to End of Treatment", "setting": "2 mg TID, Safety Population", "result": "−0.6", "unit": "%"}, {"measurement": "Platelet count, Mean Change From Baseline to End of Treatment", "setting": "2 mg TID, Safety Population", "result": 3.1, "unit": "K/μL"}, {"measurement": "Potassium, Mean Change From Baseline to End of Treatment", "setting": "2 mg TID, Safety Population", "result": -0.1, "unit": "mmol/L"}, {"measurement": "Sodium, Mean Change From Baseline to End of Treatment", "setting": "2 mg TID, Safety Population", "result": -1.0, "unit": "mmol/L"}, {"measurement": "Total bilirubin, Mean Change From Baseline to End of Treatment", "setting": "2 mg TID, Safety Population", "result": -0.0, "unit": "mg/dL"}, {"measurement": "White blood cells, Mean Change From Baseline to End of Treatment", "setting": "2 mg TID, Safety Population", "result": 0.2, "unit": "K/μL"}, {"measurement": "ALT, Mean Value", "setting": "[3]", "result": 22.2, "unit": "IU/L"}, {"measurement": "AST, Mean Value", "setting": "[3]", "result": 22.9, "unit": "IU/L"}, {"measurement": "Albumin, Mean Value", "setting": "[3]", "result": 4.2, "unit": "g/dL"}, {"measurement": "Alkaline phosphatase, Mean Value", "setting": "[3]", "result": 64.2, "unit": "IU/L"}, {"measurement": "BUN, Mean Value", "setting": "[3]", "result": 13.0, "unit": "mg/dL"}, {"measurement": "Basophils, Mean Value", "setting": "[3]", "result": 0.4, "unit": "%"}, {"measurement": "Calcium, Mean Value", "setting": "[3]", "result": 9.4, "unit": "mg/dL"}, {"measurement": "Chloride, Mean Value", "setting": "[3]", "result": 103.6, "unit": "mmol/L"}, {"measurement": "Creatinine, Mean Value", "setting": "[3]", "result": 0.8, "unit": "mg/dL"}, {"measurement": "Eosinophils, Mean Value", "setting": "[3]", "result": 3.2, "unit": "%"}, {"measurement": "Glucose (random), Mean Value", "setting": "[3]", "result": 90.9, "unit": "mg/dL"}, {"measurement": "Hematocrit, Mean Value", "setting": "[3]", "result": 40.5, "unit": "%"}, {"measurement": "Hemoglobin, Mean Value", "setting": "[3]", "result": 13.6, "unit": "g/dL"}, {"measurement": "Lymphocytes, Mean Value", "setting": "[3]", "result": 30.5, "unit": "%"}, {"measurement": "Monocytes, Mean Value", "setting": "[3]", "result": 7.5, "unit": "%"}, {"measurement": "Neutrophils, Mean Value", "setting": "[3]", "result": 58.5, "unit": "%"}, {"measurement": "Platelet count, Mean Value", "setting": "[3]", "result": 253.3, "unit": "K/μL"}, {"measurement": "Potassium, Mean Value", "setting": "[3]", "result": 4.2, "unit": "mmol/L"}, {"measurement": "Sodium, Mean Value", "setting": "[3]", "result": 138.1, "unit": "mmol/L"}, {"measurement": "Total bilirubin, Mean Value", "setting": "[3]", "result": 0.5, "unit": "mg/dL"}, {"measurement": "White blood cells, Mean Value", "setting": "[3]", "result": 5.8, "unit": "K/μL"}, {"measurement": "Shifts in hematology or chemistry parameters, in words", "setting": "Week 4, end of treatment, end of follow-up", "result": "None of the shifts in hematology or chemistry parameters were of clinical concern"}, {"measurement": "Mean changes from baseline in chemistry parameters, in words", "setting": "[4]", "result": "None of the mean changes in chemistry parameters were considered to be clinically significant"}, {"measurement": "Mean changes from baseline in hematology parameters, in words", "setting": "[4]", "result": "None of the mean changes in hematology parameters were considered to be clinically significant"}]}
